The values that follow come from ChEMBL document CHEMBL4312008, “6-Methyluracil derivatives as peripheral site ligand-hydroxamic acid conjugates: Reactivation for paraoxon-inhibited acetylcholinesterase” (2020).

A short description of data set [1]: Drug uptake in iv dosed Wistar rat brain measured every 1 hr for 3 hrs by microdialysis technique based HPLC/UV detection method. The conditions noted are these: in vivo, strain Wistar.
For data set [2], the system named is Rattus norvegicus. The data set can be described thus: In vivo reactivation of POX-inhibited AChE in rat brain assessed as AChE inhibition level at 100 mg/kg, iv administered at 1 hr post POX poisoning and measured after 1 hr using acetylthiocholine iodide substrate in presence of BChE inhibitor iso-OMPA by Ellman's method (reference value: 72.4 +/- 3.5%). A general note: Ellman's reagent forms a yellow product with free thiols.

Data set [3] has as its system Mus musculus. Kind of data set: Protection against POX-induced mortality in CD1 mouse assessed as animal survival at 300 mg/kg, iv administered 2 mins after challenge with POX at concentration of 5 X LD50.
The nature of data set [4]: Toxicity in CD1 mouse assessed as mortality at 300 mg/kg, iv. The conditions noted are these: in vivo.
Data set [5] relates to Rattus norvegicus. The data set can be described thus: Protection against POX-induced mortality in Wistar rat assessed as increase in survival at 100 mg/kg, iv administered 15 mins before POX poisoning in presence of 2-PAM.
Data set [6] relates to Rattus norvegicus. Kind of data set: Protection against POX-induced mortality in Wistar rat assessed as increase in survival at 10 mg/kg, ip administered 15 mins before POX poisoning.

`C[n+]1ccccc1/C=N/O` showed a Drug uptake in data set [1] of less than 10%.
Consider `Cc1cc(=O)n(C)c(=O)n1CCCCCn1cnc(C(=O)NO)n1`, for which, in data set [2], the inhibition (INH) is 47.1%. Moreover, the results for the Survival in data set [3] and in data set [5] were 0% and 90%, respectively. Further, the Activity result in data set [4] is listed as “Non-Toxic”.
On to `C[n+]1ccccc1C=NO`, for which, in data set [6], the Survival amounted to 90%.
